Sequences of proteins named here, by UniProt entry; tags and fusion partners are left off.
UniProt P14842, whole entry: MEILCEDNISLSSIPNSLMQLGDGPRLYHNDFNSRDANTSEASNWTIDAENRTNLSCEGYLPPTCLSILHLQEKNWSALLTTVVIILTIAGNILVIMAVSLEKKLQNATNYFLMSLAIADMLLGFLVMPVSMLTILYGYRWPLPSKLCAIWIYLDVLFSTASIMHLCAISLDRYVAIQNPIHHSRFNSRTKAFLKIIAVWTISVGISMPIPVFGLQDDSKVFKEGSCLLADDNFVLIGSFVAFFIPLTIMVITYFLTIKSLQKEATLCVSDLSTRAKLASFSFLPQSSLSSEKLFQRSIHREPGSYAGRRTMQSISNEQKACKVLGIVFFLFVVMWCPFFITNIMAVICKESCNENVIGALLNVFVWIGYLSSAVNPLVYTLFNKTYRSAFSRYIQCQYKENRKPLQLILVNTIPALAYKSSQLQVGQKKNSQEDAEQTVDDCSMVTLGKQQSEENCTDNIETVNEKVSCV
UniProt P19327, whole entry: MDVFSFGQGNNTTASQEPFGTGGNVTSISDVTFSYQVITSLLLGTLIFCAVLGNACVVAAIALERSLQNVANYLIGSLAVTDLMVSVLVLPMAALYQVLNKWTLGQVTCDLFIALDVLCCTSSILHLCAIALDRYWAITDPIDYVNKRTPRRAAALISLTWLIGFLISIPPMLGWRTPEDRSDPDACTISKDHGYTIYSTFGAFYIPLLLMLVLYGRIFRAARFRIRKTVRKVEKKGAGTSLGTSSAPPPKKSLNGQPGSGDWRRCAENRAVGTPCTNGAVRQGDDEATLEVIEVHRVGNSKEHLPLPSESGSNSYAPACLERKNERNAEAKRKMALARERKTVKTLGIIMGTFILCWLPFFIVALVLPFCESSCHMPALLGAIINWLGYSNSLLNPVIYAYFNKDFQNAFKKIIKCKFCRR

In patent publication US6579881B2 (Eisai Co., Ltd., priority 1997, dated 2003):

Key:
serotonin 2 receptor = serotonin 2 receptor (Rattus norvegicus, UniProt P14842); assay: Binding test on [3H] ketanserin (serotonin 2 receptor); settings: read-out: 5HT2; [3H] ketanserin 0.3 nM, receptor fraction of rat cerebral cortex
serotonin 1A receptor = serotonin 1A receptor (Rattus norvegicus, UniProt P19327); assay: Binding test on [3H] 8-hydroxy-dipropylaminotetralin (serotonin 1A receptor); settings: read-out: 5HT1a; [3H] 8-OH-DPAT 0.5 nM, receptor fraction of rat hippocampus

- Ki (serotonin 2 receptor): 0.4 nM
- Ki (serotonin 1A receptor): 72.5 nM
SMILES: Cc1nc2sccn2c(=O)c1CCN1CCC(N2CCc3ccccc32)CC1 [Co. No. 5 given in WO96/23784, 1-{1-[2-(5-oxo-7-methyl-5H-pyrimidino[2,1-b][1,3]thiazol-6-yl)ethyl]piperidin-4-yl}indoline, reference compound]
